Measurements taken from article PMC2634297 (Bioorganic & medicinal chemistry letters, 2008).

Amino acid sequences for entries named in this document (tags omitted). A change or cut given only in a name is not applied to a line headed by its entry.
UniProt Q99LR1: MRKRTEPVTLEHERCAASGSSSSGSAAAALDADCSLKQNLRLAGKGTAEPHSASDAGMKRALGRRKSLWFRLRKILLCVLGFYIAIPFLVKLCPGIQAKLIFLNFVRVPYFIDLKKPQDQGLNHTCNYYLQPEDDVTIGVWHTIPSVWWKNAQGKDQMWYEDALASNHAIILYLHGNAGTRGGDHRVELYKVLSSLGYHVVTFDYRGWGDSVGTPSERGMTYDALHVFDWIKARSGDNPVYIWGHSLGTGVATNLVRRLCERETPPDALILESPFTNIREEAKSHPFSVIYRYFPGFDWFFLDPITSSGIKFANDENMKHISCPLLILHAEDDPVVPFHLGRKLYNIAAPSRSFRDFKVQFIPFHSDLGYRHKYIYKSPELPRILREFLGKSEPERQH

Target: ABHD12 (Mus musculus, UniProt Q99LR1)

Structure (SMILES): CCCCCCCCCCC[C@@H](C[C@@H]1OC(=O)[C@H]1CCCCCC)OC(=O)[C@H](CC(C)C)NC=O [THL, tetrahydrolipstatin]
- inhibition of recombinant ABHD12 (in words): selectively blocked
